Source: ChEMBL document CHEMBL4321786, “Discovery of Small Molecule Renal Outer Medullary Potassium (ROMK) Channel Inhibitors: A Brief History of Medicinal Chemistry Approaches To Develop Novel Diuretic Therapeutics” (J Med Chem, 2019)

Assay: Selectivity index, ratio of IC50 for inhibition of GABA receptor (unknown origin) by radioligand displacement assay to IC50 for inhibition of rat ROMK1 expressed in HEK293 cells by Tl+ flux assay
Format: cell-based

**Q.** Which Ratio IC50 does the source give for `O=[N+]([O-])c1ccc2nc(COCc3nc4ccc([N+](=O)[O-])cc4[nH]3)[nH]c2c1` here?
**A.** Its Ratio IC50 is 25.
